# Molecular target: B-cell lymphoma 6 protein (Homo sapiens, UniProt P41182)
# Test: Inhibition of human BCL6 BTP domain measured by fluorescence polarization assay
smiles,measurement,value
Cn1c(=O)n(C)c2cc(Nc3ccnc(Cl)c3C#N)ccc21,IC50,11 µM

# Source: BindingDB's records for doi:10.1021/jm9508853 (University of Maryland, 2021)
